Literature values, collected in PMC3197697 (Bioorganic & medicinal chemistry, 2011).

The chains behind the UniProt entries cited, without tags or fusion partners.
UniProt P32245, whole entry: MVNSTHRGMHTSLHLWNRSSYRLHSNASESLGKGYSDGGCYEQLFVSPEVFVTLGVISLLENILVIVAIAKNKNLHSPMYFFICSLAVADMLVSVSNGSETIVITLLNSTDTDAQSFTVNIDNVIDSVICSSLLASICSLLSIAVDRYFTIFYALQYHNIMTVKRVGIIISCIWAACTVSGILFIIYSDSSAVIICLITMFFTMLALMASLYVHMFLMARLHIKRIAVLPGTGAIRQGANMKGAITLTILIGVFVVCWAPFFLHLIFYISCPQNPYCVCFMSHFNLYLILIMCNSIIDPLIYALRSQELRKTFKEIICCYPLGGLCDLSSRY

How the values were obtained:
MC4R = MC4R (Homo sapiens, UniProt P32245); details: introduction statement
CCK2R = target: T1, CCK2R (Homo sapiens, UniProt P32239); details: introduction statement
T1 sequence (P32239 1-447): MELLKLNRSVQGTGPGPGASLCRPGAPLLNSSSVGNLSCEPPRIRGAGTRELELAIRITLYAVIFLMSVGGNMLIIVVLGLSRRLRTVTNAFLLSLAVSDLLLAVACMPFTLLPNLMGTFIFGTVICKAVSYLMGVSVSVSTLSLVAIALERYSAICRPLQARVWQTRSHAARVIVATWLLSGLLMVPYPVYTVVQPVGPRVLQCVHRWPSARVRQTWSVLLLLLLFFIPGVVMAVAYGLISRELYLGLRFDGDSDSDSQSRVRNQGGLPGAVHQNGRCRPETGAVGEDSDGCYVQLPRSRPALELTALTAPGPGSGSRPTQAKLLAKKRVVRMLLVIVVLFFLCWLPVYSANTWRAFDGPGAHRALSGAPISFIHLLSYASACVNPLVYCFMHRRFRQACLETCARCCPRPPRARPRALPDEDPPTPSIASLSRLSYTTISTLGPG

Molecule	affinity for binding to MC4R (in words) (MC4R)	affinity for binding to CCK2R (in words) (CCK2R)
CC(=O)N[C@@H](Cc1c[nH]cn1)C(=O)N[C@H](Cc1ccccc1)C(=O)N[C@@H](CCCNC(=N)N)C(=O)N[C@@H](Cc1c[nH]c2ccccc12)C(N)=O [MSH4, Ac-His-DPhe-Arg-Trp-NH2]	low micromolar	–
Trp-Met-Asp-Phe-NH2 [CCK4]	–	low nanomolar
